In US20030152646A1, “Method of treating conditions caused by activated microglia” (priority 2001, published 2003):

Experiments:
[1] = tested on: nitric oxide (NO) production; assay: Nitrite measurement (Griess reaction) in LPS-treated microglia-neuron co-cultures; type: cell-based, rat; details: 100 ng/ml LPS, 48 hours; same concentrations as for neuron survival
[2] = tested on: microglia-neuron co-cultures; details: 100 ng/ml LPS, 48 hours; L-NMMA 1 mM, PEN 500 μM, THA 200 μM, FeTMPyP 2 μM, FeTPPS 2 μM, MnTMPyP 5 μM, 50 U/ml SOD + 100 U/ml catalase
[3] = tested on: Saccharomyces cerevisiae cells lacking cytosolic superoxide dismutase (sod1Δ); assay: Yeast sod mutants growth assay; details: 25 μM, YPE (ethanol) medium, absence or presence of paraquat (10 μM), 48 hours
[4] = tested on: microglia-neuron co-cultures; details: 5 μM Aβ1-42 + 10 ng/ml interferon γ, 48 hour; FeTMPyP 2 μM, MnTMPyP 5 μM
[5] = tested on: microglia-neuron co-cultures; assay: Neuron survival in co-cultures treated with the NO donor SNP; details: SNP 300 μM plus FeTMPyP 2 μM, 48 hr

Substance	effect on nitrite accumulation / NO production [1]	effect on LPS-induced neuron death / microglial neurotoxicity [2]	effect on growth defects of sod1Δ mutants [3]	effect on Aβ-induced microglial neurotoxicity [4]	effect on SNP-induced neuron death [5]
Mn(III)tetrakis(1-methyl-4-pyridyl)porphyrin pentachloride	without compromising nitric oxide production	attenuated	reversed the growth defects		
5,10,15,20-Tetrakis(N methyl-4′-pyridyl)porphinato iron (III) chloride			did not reverse the growth defects	blocked	could not be blocked
